Values quoted from earlier work in patent US20200277568A1, “Small Molecule-Induced Method for Directly Reprogramming Human Fibroblasts into Liver Cells” (Transcend Cytotherapy Co.,Ltd, priority 2017, published 2020).

Sequences of proteins named here, by UniProt entry; tags and fusion partners are left off. A change or cut given only in a name is not applied to a line headed by its entry.
UniProt Q96KQ7: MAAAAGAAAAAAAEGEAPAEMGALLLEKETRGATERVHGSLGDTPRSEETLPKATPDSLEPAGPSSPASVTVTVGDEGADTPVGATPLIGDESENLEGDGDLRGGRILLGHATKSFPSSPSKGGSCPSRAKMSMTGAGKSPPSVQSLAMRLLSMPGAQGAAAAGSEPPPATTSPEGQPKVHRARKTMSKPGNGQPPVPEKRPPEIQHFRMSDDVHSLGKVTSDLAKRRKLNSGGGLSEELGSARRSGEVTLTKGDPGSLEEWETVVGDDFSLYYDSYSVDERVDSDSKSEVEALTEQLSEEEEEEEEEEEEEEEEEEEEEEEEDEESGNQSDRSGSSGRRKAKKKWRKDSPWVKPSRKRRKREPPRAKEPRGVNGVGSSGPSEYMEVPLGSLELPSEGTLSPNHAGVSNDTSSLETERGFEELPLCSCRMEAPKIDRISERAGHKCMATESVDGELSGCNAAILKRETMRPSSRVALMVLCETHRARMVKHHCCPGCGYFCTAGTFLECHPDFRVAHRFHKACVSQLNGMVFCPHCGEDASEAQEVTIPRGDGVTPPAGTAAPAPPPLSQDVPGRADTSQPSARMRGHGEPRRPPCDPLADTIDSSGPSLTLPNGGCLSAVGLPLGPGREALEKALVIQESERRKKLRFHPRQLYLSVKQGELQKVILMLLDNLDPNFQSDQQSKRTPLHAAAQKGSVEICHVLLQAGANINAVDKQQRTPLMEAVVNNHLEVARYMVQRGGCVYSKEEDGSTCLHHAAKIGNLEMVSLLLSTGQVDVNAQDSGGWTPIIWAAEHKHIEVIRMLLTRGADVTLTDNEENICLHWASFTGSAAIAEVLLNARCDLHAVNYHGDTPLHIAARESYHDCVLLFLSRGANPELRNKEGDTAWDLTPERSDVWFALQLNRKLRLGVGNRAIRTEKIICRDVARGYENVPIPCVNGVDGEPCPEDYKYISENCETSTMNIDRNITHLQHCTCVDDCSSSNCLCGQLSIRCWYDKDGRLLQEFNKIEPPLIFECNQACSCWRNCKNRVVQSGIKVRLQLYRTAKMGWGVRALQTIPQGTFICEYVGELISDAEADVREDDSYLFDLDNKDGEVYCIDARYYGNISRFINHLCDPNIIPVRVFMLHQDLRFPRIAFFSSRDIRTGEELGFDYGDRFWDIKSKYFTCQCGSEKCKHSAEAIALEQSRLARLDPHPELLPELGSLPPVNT

Target: G9a histone methyltransferase (Homo sapiens, UniProt Q96KQ7)

- IC50: 15 nM
Compound: COc1cc2c(NC3CCN(C)CC3)nc(N3CCCN(C)CC3)nc2cc1OCCCN(C)C [UNC0224]
